The record followed here is PubChem BioAssay AID504441 (Broad Institute, 2011).

Only a part is listed here, and it is no random draw. Calls of active or inactive are those of the source. Rule as the data show it: active = inhibition above about 50%; inactive = the rest.

The target in the assay is Dual specificity tyrosine-phosphorylation-regulated kinase 1A (Rattus norvegicus) (UniProt Q63470). The experiment in a line: rat Dyrk1A kinase inhibitors, primary screen, biochemical, single point, plate reader (AID 504441).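 Also: plate controls were vehicle with enzyme for no effect and no enzyme for full effect.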 The note with it: ADP-Glo luminescence, NFATc1 peptide, at 12.5 µM, active compounds read high.
As to `Clc1ccc(Cl)c(NC2=NCC(CBr)S2)c1` (stereo not given), the inhibition was inactive: -1.98%.
`CN1CCCC(OC(=O)C(c2ccccc2)c2ccccc2)C1` (stereo not given): the inhibition was inactive: -1.09%.
To `COc1ccccc1OP(=O)(Nc1ccc(C)cn1)Oc1ccccc1OC` belongs inactive: 1.53%.
The value for `CN(C(=O)Cc1ccc(Cl)c(Cl)c1)[C@H]1CCCC[C@H]1N1CCCC1` was inactive: -3.16%; that for `Cc1ccc(N/C(=N/P(=O)(N2CCOCC2)N2CCOCC2)N2CCOCC2)cc1` was inactive: 2.46%.
As for `NC(=O)c1cc([N+](=O)[O-])cc([N+](=O)[O-])c1N`, the inhibition is inactive: 8.58%.
To `Oc1ccccc1CNc1ccccn1` belongs inactive: -2.66%; to `O=C(NC(Sc1ccncn1)C(Cl)(Cl)Cl)c1ccccc1` (stereo not given), inactive: -4.61%; to `CC(C)CC(=O)NC(Sc1ccc(Cl)cc1)C(Cl)(Cl)Cl` (stereo not given), inactive: 4.87%.
As to `Nc1cc(N)c2nonc2c1[N+](=O)[O-]`, the inhibition is inactive: 22.5%.
For the compound `CCOP(=O)(Nc1ccccc1)OCC`, the inhibition was inactive: 10.3%.
As for `Cc1cc(SC(NC(=O)c2ccc(F)cc2)C(Cl)(Cl)Cl)ncn1` (stereo not given), the inhibition was inactive: -0.763%.
Regarding `CN(C(=O)Cc1ccc(Cl)c(Cl)c1)[C@H]1CCCC[C@@H]1N1CCCC1`, the inhibition was inactive: 0.184%.
The value for `Cc1ccc(NP(=O)(Oc2ccccc2F)Oc2ccccc2F)nc1` was inactive: -1.53%; that for `O=P(Nc1nc2ccc(Cl)cc2s1)(c1ccccc1)c1ccccc1` was inactive: 2.48%.
Turning to `O=C(O)c1ccccc1[As](=O)(O)O`, the inhibition is inactive: 2.89%.
For `CC(=O)Nc1ccc([As](=O)(O)O)cc1`, the inhibition was inactive: 1.63%.
`CCCC1OP(N)(=O)OCC1CC` (stereo not given): the inhibition was inactive: -5.34%.
On to `Nc1cccc2ccc([As](=O)(O)O)cc12`, for which the inhibition is inactive: -1.17%.
On to `CCN(N=Nc1nonc1N)c1nonc1N`, for which the inhibition is inactive: 15.8%.
To `O=C(Nc1cc([As](=O)(O)O)ccc1O)c1ccccc1` belongs inactive: 2.93%; to `O=P1(N(CCCl)CCCl)OCCCS1` (stereo not given), inactive: 4.88%; to `O=C(O)CNc1ccc([As](=O)(O)O)cc1`, inactive: 3.25%.
`O=[N+]([O-])c1cccc(NC2=NCC(CBr)S2)c1` (stereo not given): the inhibition was inactive: 11.8%.
With `COC(=O)C1(C)COP(=O)(Nc2ccccc2)OC1` (stereo not given), the inhibition was inactive: 4.27%.
With `O=[N+]([O-])c1ncn(CCn2ncnc2[N+](=O)[O-])n1`, the inhibition was inactive: -1.51%.
To `CC(C)(C)C(=O)NC(Sc1ccncn1)C(Cl)(Cl)Cl` (stereo not given) belongs inactive: 2.63%.
Turning to `O=[N+]([O-])c1cc([N+](=O)[O-])c(CCNc2ccccc2)c([N+](=O)[O-])c1`, the inhibition was inactive: -6.29%.
As to `CCc1nc2c(n1)c1c(non1O)c1c2no[n+]1[O-]`, the inhibition was inactive: 16.9%.
As for `CC(=O)N1C2C3N(C(C)=O)C1C1N(C(C)=O)C(C(N1C(C)=O)N3C(C)=O)N2C(C)=O`, the inhibition was inactive: 14.8%.
To `O=[N+]([O-])c1cccc2n[nH]nc12` belongs inactive: -0.793%; to `CC1CCN(C(=O)Oc2c(Cl)cc(Cl)c3cccnc23)CC1`, inactive: 7.36%; to `CC(C)=N/N=C(\N)N[N+](=O)[O-]`, inactive: 0.306%.
Regarding `CN(C)C(=O)OCCc1n(C)cc[n+]1C`, the inhibition was inactive: -6.14%.
Take `CCN(/C(=N/P(=O)(N1CCOCC1)N1CCOCC1)N1CCOCC1)c1ccc(OC)cc1`: the inhibition is inactive: 1.14%.
Take `Nc1ccc([As](=O)(O)c2ccc(N)cc2)cc1`: the inhibition was inactive: 3.11%.
To `C[N+]1=C2C=CC=CC=C2SC12C([N+](=O)[O-])=CC([N+](=O)[O-])=C[C-]2[N+](=O)[O-]` (stereo not given) belongs inactive: 4.82%; to `c1nnnn1CCn1cnnn1`, inactive: -0.426%.
With `O=P(Nc1nccs1)(c1ccccc1)c1ccccc1`, the inhibition is inactive: -4.3%.
As for `CC(C)C(=O)NC(Sc1ccccc1)C(Cl)(Cl)Cl` (stereo not given), the inhibition is inactive: 2.06%.
To `O=P(Nc1nc2ccccc2s1)(c1ccccc1)c1ccccc1` belongs inactive: 3.39%; to `C[C@H]1OP(=O)(Oc2ccccc2)[C@H](O)[C@H](O)[C@H]1N=[N+]=[N-]` (stereo not given in full), inactive: 0.172%; to `CN(C)C1(CNC(=O)c2ccc(Cl)c(S(N)(=O)=O)c2)CCCCC1`, inactive: -3.48%.
For `O=P(Nc1ccccn1)(c1ccc(Br)cc1)c1ccc(Br)cc1`, the inhibition was inactive: -0.861%.
To `COc1ccc(N)c([N+](=O)[O-])c1[N+](=O)[O-]` belongs inactive: -3.23%.
Turning to `O=C(OC1CN2CCC1CC2)c1cccc(Cl)c1` (stereo not given), the inhibition was inactive: -1.42%.
Consider `Nc1ccc([As](=O)(O)c2ccc([N+](=O)[O-])cc2)cc1`, for which the inhibition was inactive: -1.2%.
For `C(Cc1nn[nH]n1)Cc1nn[nH]n1`, the inhibition was inactive: 2.37%.
To `O=[As](O)(c1ccccc1)c1ccc(O)cc1` belongs inactive: 4.77%; to `O=[N+]([O-])c1ncn(CCn2cnc([N+](=O)[O-])n2)n1`, inactive: 6.2%.
For the compound `CC(=O)NC(SC(=S)N(C)C)C(Cl)(Cl)Cl` (stereo not given), the inhibition was inactive: -5.39%.
With `O=[N+]([O-])c1ccc(O)c(/C=N/Nc2ccc([N+](=O)[O-])cc2[N+](=O)[O-])c1`, the inhibition was inactive: 0.614%.
With `O=P1(N(CCCl)CCCl)OCCC2CCCCN21` (stereo not given), the inhibition was inactive: 12.8%.
The value for `c1ccc(-c2nn[nH]n2)c(-c2nn[nH]n2)c1` was inactive: -3.12%; that for `Cc1ccc(NP(=O)(Oc2cccc(C)c2)Oc2cccc(C)c2)nc1` was inactive: -7.53%; that for `O=C(NC1CCS(=O)(=O)C1)NP(=S)(Oc1ccccc1)Oc1ccccc1` (stereo not given) was inactive: -2.54%.
`CCNC(=S)/N=C(\N)N[N+](=O)[O-]`: the inhibition is inactive: -5.59%.
For `CN(C)C(=O)Oc1noc2ccccc12`, the inhibition is inactive: 11.9%.
Regarding `O=c1c2cc([N+](=O)[O-])ccc2[nH]c2c([N+](=O)[O-])cc([N+](=O)[O-])cc12`, the inhibition is inactive: -2.81%.
Regarding `O=C(OC1CN2CCC1CC2)c1ccccc1` (stereo not given), the inhibition is inactive: -2.84%.
To `CCC(=O)N1C2C3N(C(=O)CC)C1C1N(C(=O)CC)C(C(N1C(=O)CC)N3C(=O)CC)N2C(=O)CC` belongs inactive: -8.23%.
To `COC(=O)c1cc2c(s1)N=C(c1ccccc1)N(C)P2(=O)N1CCOCC1` (stereo not given) belongs inactive: -9.87%; to `Cc1ccc(OP(=O)(Nc2ccccn2)Oc2ccc(C)cc2)cc1`, inactive: 0.595%.
The value for `CC(=O)NC(SC(=S)N(CC(C)C)CC(C)C)C(Cl)(Cl)Cl` (stereo not given) was inactive: -2.84%; that for `CC(C)(C)C(=O)NC(Sc1ccccc1)C(Cl)(Cl)Cl` (stereo not given) was inactive: -1.04%.
Consider `O=P1(Nc2nc3ccc(Cl)cc3s2)COc2ccccc2O1` (stereo not given), for which the inhibition is inactive: 27.6%.
As for `CCOc1ccc(C2=NCC(CBr)S2)cc1` (stereo not given), the inhibition was inactive: -1.54%.
To `CC(=O)Nc1ccc([As](=O)(O)O)c(O)c1` belongs inactive: -2.3%; to `CC(=O)Nc1ccc(Oc2c([N+](=O)[O-])cc([N+](=O)[O-])cc2[N+](=O)[O-])cc1`, inactive: 0.9%.
To `Cc1ccccc1CN(C)C(=O)COC(=O)C(O)(c1ccccc1)c1ccccc1` belongs inactive: -0.717%; to `C[C@@H]1C=CCP(=O)(Oc2ccccc2)O1` (stereo not given in full), inactive: 6.7%.
In the case of `C[C@H]1OP(=O)(Oc2ccccc2)C[C@@H]2O[C@@H]21` (stereo not given in full), the inhibition is inactive: -6.13%.
For the compound `CC(=O)c1ccc(N2CC2c2ccncc2)cc1` (stereo not given), the inhibition is inactive: -2.38%.
In the case of `COC(=O)C1(C)COP(=O)(NCc2ccccc2)OC1` (stereo not given), the inhibition is inactive: 4.45%.
Regarding `O=[As](O)(c1cccc(O)c1)c1cccc(O)c1`, the inhibition was inactive: 4.54%.
Take `Cc1cccc(OCC(=O)OC2CN3CCC2CC3)c1` (stereo not given): the inhibition is inactive: 3.45%.
In the case of `O=C(OC1CN2CCC1CC2)c1ccc(Cl)cc1` (stereo not given), the inhibition was inactive: -3.35%.
In the case of `COc1cc(C(=O)NCC2(N3CCOCC3)CCCCC2)cc(Cl)c1OC(C)C`, the inhibition was inactive: 4.52%.
To `O=[As](O)(O)c1cccnc1` belongs inactive: -4.34%; to `CS(=O)(=O)c1ccc(Cl)c(NC(=O)COC(=O)C(O)(c2ccccc2)c2ccccc2)c1`, inactive: 1.86%; to `COc1cc(C2NCCC3(OCCO3)C2(C)C)cc(OC)c1OC` (stereo not given), inactive: 7.32%.
For the compound `CCOP(=O)(Nc1cccc2ccccc12)OCC`, the inhibition was inactive: 1.5%.
In the case of `Nc1cccc2c([As](=O)(O)O)cccc12`, the inhibition is inactive: -1.81%.
In the case of `Cc1ccc(NCCc2c([N+](=O)[O-])cc([N+](=O)[O-])cc2[N+](=O)[O-])cc1`, the inhibition was inactive: 0.683%.
To `CCCOP(=S)(Nc1nc(N)cc(=O)[nH]1)OCCC` belongs inactive: -1.36%; to `O=C(O)COc1ccc([As](=O)(O)O)cc1[N+](=O)[O-]`, inactive: 8.02%.
Take `Nc1ccccc1[As](=O)(O)c1ccccc1`: the inhibition was inactive: -1.32%.
To `CCOP1(=S)c2c(C)nn(CCC#N)c2N=C(c2ccccc2F)N1C` (stereo not given) belongs inactive: 2.24%; to `O=P(Nc1nccs1)(c1ccccc1)c1nc2ccccc2s1` (stereo not given), inactive: -1.56%.
Consider `O=P(Nc1nccs1)(Oc1ccccc1)Oc1ccccc1`, for which the inhibition is inactive: -1.13%.
With `CS(=O)(=O)c1cc([N+](=O)[O-])c2no[n+]([O-])c2c1`, the inhibition was inactive: -4.74%.
For the compound `N#CCCN(C(=O)COC(=O)C(O)(c1ccccc1)c1ccccc1)c1ccc(F)cc1`, the inhibition was inactive: 8.71%.
For the compound `CCOP1(=S)c2c(C)nn(CCC#N)c2N=C(c2ccc(F)cc2)N1C` (stereo not given), the inhibition was inactive: -2.92%.
Take `CN(C(=O)Cc1ccccc1)[C@@H]1CC[C@]2(CCCO2)C[C@H]1N1CCCC1`: the inhibition was inactive: -3.85%.
The value for `CN(C)C(=O)c1cc([N+](=O)[O-])cc2c1-c1c(cc([N+](=O)[O-])cc1[N+](=O)[O-])C2=O` was inactive: 2.68%; that for `O=[N+]([O-])c1ccc2c(c1)nnn2O` was inactive: 4.7%; that for `CN(C(=O)Cc1ccc(Cl)c(Cl)c1)[C@H]1CC[C@@]2(CCCO2)C[C@@H]1N1CCCC1` was inactive: 3.47%.
`NC(=O)Nc1ccc([As](=O)(O)O)cc1`: the inhibition was inactive: 4.55%.
`O=C(/C=C/c1ccccc1)OC1CN2CCC1CC2` (stereo not given): the inhibition was inactive: -3.59%.
`CCCC1OP(=O)(Nc2ccccc2)OCC1CC` (stereo not given): the inhibition is inactive: 0.421%.

A word on the inhibition: it is the change of the read-out against control, counted positive when it falls.
